Hits are enriched below; roughly 2.5% of the tested compounds scored in any of these assays.
Anesthetic bind – candidate novel general anesthetic via apoferritin binding; P02791; apoferritin/1-aminoanthracene competitive binding, fluorescence; Potency, µM (doses to about 77.5 µM), hits mostly inhibitors; 350,000 tested, 0.074% active; further: nearly all actives have a fitted effect of over 20% in size
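Horse-spleen apoferritin (10 uM) was mixed with 50% saturated 1-aminoanthracene in PBS, exposed to compounds for 10 min at room temperature, and read for fluorescence (ex 380 nm, em 535 nm). Competitive displacement was fitted with a four-parameter Hill equation.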
TrxR1 inh – inhibitors of rat thioredoxin reductase 1; O89049; recombinant rTrxR1, NADPH fluorescence consumption, selenite substrate; Potency, µM (series often up to 114 µM), actives largely listed as inhibitors; 390,000 tested, 1% active; AID 588453; further: nearly all actives have a fitted effect of over 65% in size
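Rat TrxR1 (90 nM in the dispensed reagent) was pre-reduced with 400 uM NADPH for 5 min at room temperature, then incubated with compound for 15 min. After 400 uM selenite was added, NADPH fluorescence (Ex 340/Em 450 nm) was followed for 8 min.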
TrxR1 substrate – rat thioredoxin reductase 1 substrate activity | 390,000 tested, 0.01% active | AID 588456 | Potency, µM (series often up to 114 µM) | O89049 | purified TrxR1 substrate turnover, NADPH consumption readout; further: nearly all actives have a fitted effect of over 50% in size
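Rat TrxR1, dispensed at 90 nM, was prereduced with 400 uM NADPH (final) for 5 min at ~22 deg C, then incubated with compound 15 min before 400 uM selenite. A first-read NADPH fluorescence drop versus no-compound background flagged substrates.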
miR-21 reporter – miR-21 reporter, rising signal | AID 2288 | HeLa miR-21 FLuc reporter, luciferase, 48 h | 340,000 tested, under 10 active | Potency, µM (titrated, usually from 38.3 µM); active = well fitted rising curve with a large enough effect; inconclusive = small, poorly fitted or top-dose-only effect; inactive = no such curve, though single readings can be large or run the other way;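 also: miR-21 action dims this reporter so a rising signal means less miR-21 action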
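Luminescence from a firefly luciferase reporter carrying a miR-21 binding site downstream, stably expressed under a CMV promoter in HeLa cells that make miR-21 endogenously, reports miRNA modulation after 48 h compound exposure up to approximately 40uM final.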
ClpP mod – qHTS Assay for Activators of ClpP; ATP-dependent Clp protease proteolytic subunit (Bacillus subtilis (strain 168)), P80244; purified B. subtilis ClpP, FRET peptide cleavage, 20 min; Potency, µM (titrated, usually from 57.5 µM); 340,000 tested, 1.9% active; AID 651965, 2013; active means well fitted falling curve with a large enough effect; inconclusive means small, poorly fitted or top-dose-only effect; inactive means no such curve, though single readings can be large or run the other way; further: the source files actives as falling curves though it sought activators and does not explain the sign; nearly all actives have a fitted effect of over 65% in size
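ClpP 10 microg/mL final, pH 8 Tris/KCl buffer with BSA, glycerol, Tween-20; compound pinned in; FRET-FV substrate; RT 20 min; Ex320/Em430; ΔFRET vs ADEP 5.8 microM, DMSO, no enzyme.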
Large screens that a line does not name were inactive. Unless noted, the call rests on the fitted dose curve; in most records, active means well fitted curve in the direction sought with a large enough effect; inconclusive means small, poorly fitted or top-dose-only effect, or another doubt; inactive means no such curve, though single readings can be large; an effect the other way counts as inactive or inconclusive.

Chains of the proteins cited; added tags and fusions are not shown.
ATP-dependent Clp protease proteolytic subunit (Bacillus subtilis (strain 168)), P80244, UniProt P80244, whole entry, looked up: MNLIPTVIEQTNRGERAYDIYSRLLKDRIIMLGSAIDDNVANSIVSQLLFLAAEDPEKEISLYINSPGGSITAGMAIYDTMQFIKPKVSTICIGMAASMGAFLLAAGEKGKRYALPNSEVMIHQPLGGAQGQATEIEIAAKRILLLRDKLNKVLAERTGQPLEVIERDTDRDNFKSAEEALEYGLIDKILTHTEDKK

Fc1ccc(Nc2nc(SCc3ccc(Cl)cc3)nc3ccccc23)cc1	ClpP mod 35µM
Fc1ccc(Nc2nc(SCc3cccc(Cl)c3)nc3ccccc23)cc1	ClpP mod inconclusive
Cn1cc([N+](=O)[O-])c(C(=O)Nc2ccc(C3CCCCC3)cc2)n1	Anesthetic bind 7.9µM
COCc1cc(C)n(CC(=O)NC(C)c2ccccc2)c(=O)c1C#N (configuration not stated)	ClpP mod 16µM
CCOc1ccccc1NC(=O)Cn1c(C)cc(COC)c(C#N)c1=O	none
COCc1cc(C)n(CC(=O)Nc2ccccc2C(=O)OC)c(=O)c1C#N	ClpP mod 18µM
COCc1cc(C)n(CC(=O)NCc2ccccc2)c(=O)c1C#N	none
N#Cc1ccc(S(=O)(=O)NCC(=O)OCC(=O)N2CCCC2=O)cc1	ClpP mod 14µM (no result: Anesthetic bind, miR-21 reporter)
Cc1ccc(S(=O)(=O)NCCC(=O)OCC(=O)N2CCCC2=O)cc1	none (no result: Anesthetic bind, miR-21 reporter)
CCOC(=O)c1cc(-c2ccc(OC)cc2)n(CCC(=O)Nc2ccccc2OC)c1C	none
COc1ccc2oc(C(=O)OCC(=O)N(C)c3ccccc3)c(C)c2c1	none (no result: Anesthetic bind, miR-21 reporter, ClpP mod)
COc1ccc2oc(C(=O)OCC(=O)N(C)Cc3ccccc3)c(C)c2c1	ClpP mod 28µM (no result: Anesthetic bind, miR-21 reporter)
COc1ccc2oc(C(=O)OCC(=O)N(Cc3ccccc3)C(C)C)c(C)c2c1	ClpP mod 32µM (no result: Anesthetic bind, miR-21 reporter)
Cc1c(C(c2cc(O)ccc2O)c2c(C)n(C)n(-c3ccccc3)c2=O)c(=O)n(-c2ccccc2)n1C	TrxR1 inh 71µM (no result: Anesthetic bind, miR-21 reporter, ClpP mod)
CCC(C=C[C@@H]1OC(=O)C=C[C@H]1C)=C[C@H](C)CC=CC(C)=C[C@@H](C)C(=O)[C@@H](C)[C@H](O)[C@@H](C)CC(C)=CC(=O)O	none (no result: TrxR1 inh, TrxR1 substrate, miR-21 reporter, ClpP mod)
COc1ccc(-c2nc(-c3ccccc3)c(-c3ccccc3)[nH]2)cc1Br	none
COc1ccc(-c2nc(-c3ccccc3)c(-c3cccs3)[nH]2)cc1OC	ClpP mod 28µM
COc1ccc(-c2nc(-c3cccs3)c(-c3cccs3)[nH]2)cc1OC	ClpP mod 35µM
O=[N+]([O-])c1cccc(-c2nc(-c3cccs3)c(-c3cccs3)[nH]2)c1	Anesthetic bind inconclusive
Oc1cccc(-c2nc(-c3cccs3)c(-c3cccs3)[nH]2)c1	miR-21 reporter inconclusive, ClpP mod 25µM
Cc1ccsc1-c1nc(-c2ccccc2)c(-c2ccccc2)[nH]1	ClpP mod 28µM
Cc1ccc(-c2nc(-c3cccs3)c(-c3cccs3)[nH]2)cc1	ClpP mod inconclusive
CN(Cc1ccccc1)S(=O)(=O)c1ccc(-c2cnc(C3CC3)o2)cc1	none
CCOC(=O)NC1(C(F)(F)F)NC(=O)N(c2cccc(C(F)(F)F)c2)C1=O (configuration not stated)	none
CCOC(=O)NC1(C(F)(F)F)NC(=O)N(c2ccc(F)cc2)C1=O (configuration not stated)	ClpP mod 35µM
O=C(CSc1nc(=O)[nH]c2c1CCCC2)Nc1ccccc1C(F)(F)F	none
Cc1cccc(N2CCN(C(=O)CN3C(=O)COc4ccc(S(=O)(=O)N5CCCCCC5)cc43)CC2)c1C	none
COC(=O)c1ccccc1NC(=O)Cn1ncc2c(C)n(Cc3ccc(F)cc3)c(C)c2c1=O	ClpP mod inconclusive
Cc1c(CC(=O)NCC(=O)N[C@H](Cc2ccccc2)C(=O)O)c(=O)oc2cc(O)ccc12	TrxR1 inh 79µM
Cc1c(C(=O)NCC2CCCO2)oc2ccc3c(c12)C(=O)CC(C)(C)O3 (configuration not stated)	ClpP mod 25µM
CCn1cc(C(=O)O)c(=O)c2cc(F)c(N3CCN(S(=O)(=O)c4ccc(NC(=O)OC)cc4)CC3)cc21	ClpP mod 18µM
CCOC(=O)c1cn(CC)c2cc(N3CCOCC3)c(F)cc2c1=O	ClpP mod 32µM
CCn1cc(S(=O)(=O)c2ccc(OC)cc2)c(=O)c2cc(F)c(N3CCCCCC3)cc21	none
CCN1CCN(c2cc3c(cc2F)c(=O)c(S(=O)(=O)c2ccc(OC)cc2)cn3CC)CC1	ClpP mod 7.9µM
CCCNC(=O)c1cn(CC)c2cc(N3CCN(C(=O)c4ccco4)CC3)c(F)cc2c1=O	none
CCn1cc(C(=O)NCc2cccc(F)c2)c(=O)c2cc(F)c(N3CCN(C(=O)c4ccco4)CC3)cc21	ClpP mod 25µM
COc1ccc(Nc2nc3ccc(Cl)cc3n3nnnc23)cc1OC	none
CCN(CC)c1cc2c(cc1F)c(=O)c(S(=O)(=O)c1ccc(OC)cc1)cn2Cc1ccccc1	ClpP mod 32µM
CCN(CC)c1cc2c(cc1F)c(=O)c(S(=O)(=O)c1ccccc1)cn2Cc1ccccc1	ClpP mod 22µM
Cc1cc(Br)ccc1NC(=O)CSc1c2c(nc3ccccc13)CCC2	Anesthetic bind inconclusive
O=C(c1ccc(Br)o1)N1CCC(c2nc3ccccc3[nH]2)CC1	TrxR1 inh 45µM (no result: Anesthetic bind, miR-21 reporter)
Cc1oc(-c2ccc(C(=O)NCc3ccccc3F)cc2)nc1COc1ccccc1	none
CCCN(CC1CC1)c1nc(N)c2c(N)nc(OC)cc2c1C#N	ClpP mod 25µM
Cc1sc(N)c(C#N)c1C	ClpP mod 14µM
CCN(CC)C(=O)c1sc(N)c(C#N)c1C	none
CCOC(=O)c1c(NC(=O)Nc2ccc(F)cc2)sc(C(=O)N(C)C)c1C	none
CC1(C)Nc2ccccc2C(=O)N1NS(=O)(=O)c1ccccc1	none
Cc1ccc(S(=O)(=O)NN2C(=O)c3ccccc3NC2(C)C)cc1	TrxR1 inh inconclusive, ClpP mod 16µM
Cc1cccc(OCC(=O)NCC2(N3CCN(C)CC3)CCCCC2)c1C	none
COc1ccc(C(c2nnnn2CC2CCCO2)N2CCC(C(N)=O)CC2)cc1 (configuration not stated)	ClpP mod 28µM
COc1ccccc1C(c1nnnn1CC1CCCO1)N1CCC(C(N)=O)CC1 (configuration not stated)	none
COc1ccc(Cn2nnnc2C(c2ccc(N(C)C)cc2)N2CCC(C(N)=O)CC2)cc1 (configuration not stated)	TrxR1 inh 7.1µM (no result: ClpP mod)
O=C(N/N=C(\c1ccccc1)c1ccccn1)c1ccccc1Cl	ClpP mod 8.9µM
COc1ccc(-c2cc(C3C4C=CCC(C)C4C(=O)N3Cc3ccccc3)ccc2F)cc1 (configuration not stated)	none (no result: miR-21 reporter, ClpP mod)
COc1ccc(-c2cc([C@H]3[C@H]4C=CC[C@@H](C)[C@@H]4C(=O)N3Cc3ccccc3)ccc2F)cc1OC	ClpP mod 32µM
CCN1CCn2c3c(c4cc(C)ccc42)CCCC31 (configuration not stated)	ClpP mod 28µM
Cc1ccc2c(c1)c1c3n2CCN(CCC#N)C3CCC1 (configuration not stated)	none (no result: Anesthetic bind, TrxR1 inh, TrxR1 substrate, miR-21 reporter)
